Antibody variant affinities, Ab-95 light chain, assay 2

Antigen: PDVDLGDISGINAS, a 14-residue peptide of the SARS-CoV-2 spike HR2 region.

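Library AAYL52 holds single substitutions and randomly drawn double and triple substitutions in the CDRs. In AlphaSeq, yeast of one mating type display the scFv and yeast of the other type display the target. Pairs that bind mate more often; barcode pairs of the diploids are counted by sequencing. The ratio of observed to expected reads was calibrated, replicate by replicate, on BCL2-family standards whose Kd was known from biolayer interferometry. Each pool was mated in three replicate cultures.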

Each scFv is VH, three GGGGS repeats, VL, as in the parent Ab-95, and differs from it in the CDRs of the light chain only.
VH: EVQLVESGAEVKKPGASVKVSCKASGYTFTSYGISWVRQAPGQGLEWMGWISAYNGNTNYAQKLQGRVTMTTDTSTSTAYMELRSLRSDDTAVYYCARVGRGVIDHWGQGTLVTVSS
VL: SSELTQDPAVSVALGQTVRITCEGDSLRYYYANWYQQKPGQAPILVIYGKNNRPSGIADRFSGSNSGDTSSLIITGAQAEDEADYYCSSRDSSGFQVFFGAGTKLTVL

Changes read parent residue, position, new residue, counted from the first residue of the VL shown. Values are log10 of the apparent Kd in nM; lower means stronger binding. Averages over replicates are reported, and they cover detected replicates only. "no signal" marks a missing value. The strain was present, yet no cells mated with the target were sequenced in any replicate, which points to weak or no binding.

mean log10 Kd (nM),replicates with signal,changes
3.30,1 of 3,A32L+N33W
4.13,1 of 3,R28I+S92V+G94L
3.24,2 of 3,N52V+S55T+S89W
3.83,1 of 3,A32M+P54D+G94S
4.84,1 of 3,S26K+N52K+G94M
5.52,1 of 3,K50T+P54M+S89P
4.05,2 of 3,A32N+G49Y
3.87,2 of 3,A32M+N51A+V97S
4.28,2 of 3,N52R+D91T+S93P
no signal,0 of 3,G24T+S26W+S93I
1.77,3 of 3,D25E+S55A
3.86,1 of 3,E23A+N33R+F95N
4.56,2 of 3,L27M+K50I+P54M
3.71,1 of 3,R53W+D91W+S93A
3.35,3 of 3,K50G+P54C+Q96W
3.54,1 of 3,G24I+N52T+P54I
2.90,3 of 3,G49N+D91W+S92P
2.69,3 of 3,R53K+S89T+R90V
no signal,0 of 3,N52K+R90D
1.80,3 of 3,K50D+N52K+S92D
3.19,3 of 3,L27F+R28T+N52K
3.78,1 of 3,G24C+R28E+V97T
2.56,1 of 3,A32K+S93P+F95Q
2.96,3 of 3,E23H+R28V+Q96P
1.92,3 of 3,Y30T+S89T+S93P
3.35,2 of 3,Y31M+S93G+F98D
4.01,3 of 3,S26P+L27G+Q96H
4.10,2 of 3,Y31G+R90H+S92P
3.07,1 of 3,E23P+L27T+Y31P
3.46,1 of 3,L27H+N51T+Q96V
3.58,1 of 3,S26G+R53Y+D91I
3.98,1 of 3,E23D+G24E+N33Q
2.61,3 of 3,Y29T+N51P+Q96H
2.33,3 of 3,Y31E+P54I+D91G
4.36,1 of 3,Y31P+G49C
no signal,0 of 3,A32L+R90A+G94F
5.48,1 of 3,Y29P+R90H+S93M
no signal,0 of 3,E23C+N51K+G94H
4.84,2 of 3,Y30C+P54E+D91C
no signal,0 of 3,G24W+Y31F+R90N
1.71,3 of 3,Y29K+F95G+V97M
3.59,1 of 3,Y31I+S93M+Q96C
4.36,2 of 3,G49I+P54L+V97F
3.46,2 of 3,N52A+G94V
3.88,2 of 3,S26W+Y29S+F95I
3.01,2 of 3,R53H+R90A+G94M
3.74,3 of 3,N51L+S93V+Q96M
3.72,3 of 3,Y31P+G49L+S88Q
5.38,1 of 3,A32T+N52L+S88R
4.35,2 of 3,S26D+N51R+R90A
3.91,3 of 3,S26M+S55H
4.09,1 of 3,G24E+P54Y+V97C
no signal,0 of 3,E23W+Y29C+N51Q
3.28,3 of 3,S55L+R90H+G94N
2.28,3 of 3,L27H+Y31T
2.77,2 of 3,S55Y+S92E+V97W
3.98,1 of 3,G24D+L27C+R53V
2.42,3 of 3,K50Q+N51S+S93Y
3.61,1 of 3,S55K+F95C
5.27,2 of 3,K50C+N52H
1.65,3 of 3,R28C+Y30N+K50S
3.84,2 of 3,Y31G+N33C+S93C
2.71,3 of 3,A32H+P54F+S89C
2.46,3 of 3,E23A+G24K+N52T
2.93,3 of 3,S26Y+Y30F+Y31H
1.67,3 of 3,Y30T+S55Y+D91C

For reference, 7 entries of the list once more:

changes	mean log10 Kd (nM)	replicates with signal
Y31P+G49L+S88Q	3.72	3 of 3
S26K+N52K+G94M	4.84	1 of 3
Y29K+F95G+V97M	1.71	3 of 3
A32M+P54D+G94S	3.83	1 of 3
Y31M+S93G+F98D	3.35	2 of 3
A32L+N33W	3.30	1 of 3
R53H+R90A+G94M	3.01	2 of 3

Nonspecific signal, from three strains lacking the peptide, appeared in 28% of pairings of library AAYL52, centred on 3.91 (5% of these signals below 2.90); values are not corrected for it.

The measurements come from Engelhart et al. 2022 (doi:10.1038/s41597-022-01779-4) through the FLAb antibody collection.